# Assay results: PubChem BioAssay AID743266 (National Center for Advancing Translational Sciences (NCATS), 2014)
# Protein sequences, listed by entry. Tags and fused reporters are not part of them.
# UniProt Q03431, whole entry: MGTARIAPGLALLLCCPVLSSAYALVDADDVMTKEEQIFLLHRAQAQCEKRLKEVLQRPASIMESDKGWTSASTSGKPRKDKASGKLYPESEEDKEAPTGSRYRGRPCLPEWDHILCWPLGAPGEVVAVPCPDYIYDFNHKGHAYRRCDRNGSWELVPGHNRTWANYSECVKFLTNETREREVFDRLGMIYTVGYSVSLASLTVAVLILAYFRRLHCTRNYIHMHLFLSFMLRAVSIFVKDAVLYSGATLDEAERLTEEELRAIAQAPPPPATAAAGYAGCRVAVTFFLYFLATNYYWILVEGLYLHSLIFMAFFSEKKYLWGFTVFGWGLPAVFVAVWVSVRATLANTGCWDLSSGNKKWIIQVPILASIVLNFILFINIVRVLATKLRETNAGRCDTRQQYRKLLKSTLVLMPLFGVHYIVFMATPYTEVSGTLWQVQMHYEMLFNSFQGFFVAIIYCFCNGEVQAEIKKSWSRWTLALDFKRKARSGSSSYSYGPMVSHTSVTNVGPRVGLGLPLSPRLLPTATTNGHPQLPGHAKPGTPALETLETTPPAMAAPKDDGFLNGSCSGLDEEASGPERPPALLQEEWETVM
# Only a part is listed here, and it is no random draw. The source made the active and inactive calls. Calls come from the whole dose curve; as a rule, active = well fitted activation curve with a large enough effect; inconclusive = small, poorly fitted or top-dose-only effect, or another doubt; inactive = no such curve, though single readings can be large or run the other way.
# Biological target: Parathyroid hormone/parathyroid hormone-related peptide receptor (Homo sapiens) (UniProt Q03431)
# Test: qHTS for PTHR1 Agonists: Primary Screen; note: nearly all actives have a fitted effect of over 55% in size
# Settings: HEK293 GP2 PTHR1 cells, GloSensor cAMP luminescence, 1 h; activation: at 115 µM (top of the series) unless noted
Compound,activation,outcome
O=[N+]([O-])c1cc([N+](=O)[O-])c(Nc2cccnc2)c([N+](=O)[O-])c1,inactive,
Cc1cccc(C)c1OP(C)(N)=O (stereo not given),inactive: 11.2%,
CC(C)(C)c1ccc(OP(C)(=O)Nc2ccc(SC(F)(F)F)cc2)cc1 (stereo not given),inactive: -11.4%,
O=[N+]([O-])c1ccc2c(c1)C=Nc1ccccc1O2,inactive: -25.1%,
CCOC(=O)c1ccc(NP(C)(=O)Oc2ccccc2)cc1 (stereo not given),inactive,
Cc1ccc(NP(C)(=O)Oc2ccccc2)c(C)c1 (stereo not given),inactive: -34.3%,
COc1ccccc1OP(C)(=O)Nc1ccc(C)cc1 (stereo not given),,inactive [at 57.5 µM]
COc1ccc(OP(C)(=O)Nc2cccc(F)c2)cc1 (stereo not given),inactive,
COc1ccccc1OP(C)(=O)Nc1cc(Cl)ccc1C (stereo not given),inactive: -14%,
Cc1cc(C)cc(OP(C)(N)=O)c1 (stereo not given),inactive,
CCN(CC)CCCOC(=O)C(O)(c1ccccc1)c1ccccc1,inactive: -15.7%,
COc1ccccc1-c1ccccn1.O=[N+]([O-])c1cc([N+](=O)[O-])c(O)c([N+](=O)[O-])c1,inactive,
CP(=O)(Oc1ccccc1)OC(c1ccccc1)C(F)(F)F (stereo not given),inactive,
Cc1cccc(C)c1OP(C)(=O)Nc1ccc(SC(F)(F)F)cc1 (stereo not given),inactive: -7.46%,
CP(=O)(Nc1ccc(SC(F)(F)F)cc1)Oc1ccc(Cl)cc1 (stereo not given),inactive: -55.1%,
Cc1cc(C)cc(OP(C)(=O)Nc2ccc(SC(F)(F)F)cc2)c1 (stereo not given),inactive: -27.4%,
CCc1ccc(OP(C)(=O)N2CCN(c3ccc([N+](=O)[O-])cc3)CC2)cc1 (stereo not given),inactive: -36.8%,
CP(=O)(NC(=O)Nc1ccccc1)Oc1ccccc1 (stereo not given),inactive: -8.27% [at 57.5 µM],
CCOP(C)(=S)SCC(=O)NC(C)C(=O)O (stereo not given),inactive: -13.5%,
CCOC(=O)c1ccc(NP(C)(=O)Oc2ccc(OC)cc2)cc1 (stereo not given),inactive,
O=[N+]([O-])c1cc([N+](=O)[O-])c(O)c([N+](=O)[O-])c1.c1ccc(Oc2ccncc2)cc1,inactive,
CP(=O)(Nc1ccccn1)Oc1ccc(Cl)cc1 (stereo not given),inactive: -11.5% [at 57.5 µM],
CP(=S)(Nn1cnnc1)Oc1ccccc1 (stereo not given),inactive: -3.6%,
COc1ccccc1OP(C)(=O)Nc1ccccc1 (stereo not given),inactive: -15.2%,
CP(=O)(Nc1ccccc1Br)Oc1ccccc1 (stereo not given),inactive,
O=[N+]([O-])c1cc([N+](=O)[O-])c(Nc2nnnn2CCO)c([N+](=O)[O-])c1,inactive,
CC1=C2N=C(C=C3N=C(C(C)=C4[N-][C@@](C)([C@@H]5N=C1[C@](C)(CCC(=O)NC[C@@H](C)OP(=O)([O-])O[C@H]1[C@@H](O)[C@@H](n6cnc7cc(C)c(C)cc76)O[C@@H]1CO)[C@H]5CC(N)=O)[C@@](C)(CC(N)=O)[C@@H]4CCC(N)=O)[C@@](C)(CC(N)=O)[C@@H]3CCC(N)=O)C(C)(C)[C@@H]2CCC(N)=O.[C-]#N.[Co+3],inactive: 13%,
COc1ccccc1OP(C)(=O)Nc1c(C)cccc1C (stereo not given),,inactive [at 57.5 µM]

Compound,activation,outcome
CN1CCCCC1COC(=O)C1(O)c2ccccc2CCc2ccccc21 (stereo not given),inactive: 12.7%,
CP(=O)(Nc1ccc(SC(F)(F)F)cc1)Oc1ccccc1 (stereo not given),inactive: -35.6%,
CCCOc1ccc(NP(C)(=O)Oc2ccc(Cl)cc2)cc1 (stereo not given),inactive: -14.7%,
COc1ccc(-c2ccccn2)cc1.O=[N+]([O-])c1cc([N+](=O)[O-])c(O)c([N+](=O)[O-])c1,inactive: -21.9%,
O=[N+]([O-])c1cc([N+](=O)[O-])c(-n2nnc3ccccc32)c([N+](=O)[O-])c1,inactive: 13%,
CN(Cc1cccnc1)C(=O)COc1ccc(Cl)c(Cl)c1.O=[N+]([O-])c1cc([N+](=O)[O-])c(O)c([N+](=O)[O-])c1,inactive: -1.62%,
O=[N+]([O-])c1cc([N+](=O)[O-])c(-c2cnn(-c3ccccc3)c2)c([N+](=O)[O-])c1,inactive: -23.5%,
Cc1nc2ccc3ccccc3c2s1.O=[N+]([O-])c1cc([N+](=O)[O-])c(O)c([N+](=O)[O-])c1,inactive: -8.74% [at 57.5 µM],
COc1ccccc1OP(C)(=O)Nc1cccc(Br)c1 (stereo not given),inactive: -25.8%,
Cc1cc(C)cc(OP(C)(=O)Nc2ccc(C)cc2C)c1 (stereo not given),,inactive [at 57.5 µM]
CCOC(=O)c1ccc(NP(C)(=O)Oc2cc(C)cc(C)c2)cc1 (stereo not given),inactive,
CP(=O)(Nc1cccc(Br)c1)Oc1ccccc1 (stereo not given),inactive,
Cc1cc(C)cc(OP(C)(=O)Nc2ccccn2)c1 (stereo not given),,inactive [at 57.5 µM]
Cc1ccc(C)c(NP(C)(=O)Oc2ccccc2)c1 (stereo not given),inactive: -22.6%,
CC1=NCCc2c1[nH]c1ccccc21.O=[N+]([O-])c1cc([N+](=O)[O-])c(O)c([N+](=O)[O-])c1,inactive: -13.1%,
COc1ccc(OP(C)(=O)Nc2ccc(SC(F)(F)F)cc2)cc1 (stereo not given),inactive: -4.37%,
CCOC(=O)c1ccc(NP(C)(=O)Oc2ccc(F)cc2)cc1 (stereo not given),inactive: -26.4%,
CCN(CC)CCCOC(=O)C(O)(c1ccccc1)C1CCCCC1 (stereo not given),,inactive [at 57.5 µM]
Cc1c([N+](=O)[O-])cc([N+](=O)[O-])c(Br)c1[N+](=O)[O-],inactive: -26.2%,
CCCCCOc1ccc(NP(C)(=O)Oc2ccc(Cl)cc2Cl)cc1 (stereo not given),inactive: -3.44%,
CP(=O)(Nc1ccccc1)Oc1ccc(F)cc1 (stereo not given),inactive: -0.495% [at 57.5 µM],
CC(C)c1ccc(OP(C)(=O)Nc2ccc(SC(F)(F)F)cc2)cc1 (stereo not given),inactive: -20.5%,
CP(=O)(Nc1ccccc1F)Oc1ccccc1 (stereo not given),inactive: -7.83% [at 57.5 µM],
O=C(OCCN1CCN(CCOCc2ccccc2)CC1)C(O)(c1ccccc1)c1ccccc1,inactive: -24.8%,
CP(=O)(Nc1ccc(SC(F)(F)F)cc1)Oc1ccc(F)cc1 (stereo not given),inactive,
CCOP(C)(=S)SCC(=O)NC(C)(CC)C(=O)O (stereo not given),inactive: -17.4%,
O=[N+]([O-])c1cc([N+](=O)[O-])c(C(F)(F)F)c([N+](=O)[O-])c1O,inactive: -9.85%,
